{"source": "paper PMC11971191", "about": "“Seeding-competent early tau multimers are associated with cell type-specific transcriptional signatures” (Acta Neuropathologica, 2025)", "target": "the molecule itself", "assay": "RT-QuIC (thioflavin T fluorescence, seeded aggregation); 0.1 mg/mL filtered soluble τ306 seeded with pre-formed τ306 aggregates; 10 mM HEPES pH 7.4, 400 mM NaCl, 40 µM heparin, 10 µM ThT, 42 °C, intermittent shaking; with or without tau KO mouse brain homogenate and N-2 supplement", "data": [{"protein": "recombinant τ306 fragment (domain or fragment, human, UniProt P10636-8 306-378, looked up, numbers count on: htau40; Cloned into pET-28a immediately after the N-terminal poly-histidine tag and thrombin site; no cleavage of the tag is described; Aggregates were made by shaking 1 mg/mL τ306 with 40 µM heparin at 37 °C for 360 h; also called τ306 tau fragment; τ306 substrate; source: E. coli BL21(DE3), purified (His-Trap nickel column, acetone precipitation, PD-10 desalting)) VQIVYKPVDLSKVTSKSGSLGNIHHKPGGGQVEVKSEKLDFKDRVQSKIGSLDNITHVPGGGNKKIETHKLTF", "values": [{"measurement": "binding result", "value": "binds"}]}]}
